Laboratory results: ChEMBL document CHEMBL3621167, “Therapeutic Potential of 5-HT6 Receptor Agonists” (J Med Chem, 2015)

Key:
Homo sapiens [1] = species on record: Homo sapiens; assay: Selectivity ratio of Ki for human 5-HT1A receptor to Ki for human 5-HT6 receptor
Homo sapiens [2] = species on record: Homo sapiens; assay: Selectivity ratio of Ki for human 5-HT1D receptor to Ki for human 5-HT6 receptor
Homo sapiens [3] = species on record: Homo sapiens; assay: Selectivity ratio of Ki for human 5-HT7 receptor to Ki for human 5-HT6 receptor

## CCc1[nH]c2ccc(OC)cc2c1CCN(C)C
Homo sapiens [1]
  Ratio Ki: 10
Homo sapiens [2]
  Ratio Ki: 18
Homo sapiens [3]
  Ratio Ki: 18
